Earlier results, collected in patent publication US8969413B2.

Target: T1, mGAT4 (Mus musculus, UniProt P31650)
T1 sequence (P31650 1-627): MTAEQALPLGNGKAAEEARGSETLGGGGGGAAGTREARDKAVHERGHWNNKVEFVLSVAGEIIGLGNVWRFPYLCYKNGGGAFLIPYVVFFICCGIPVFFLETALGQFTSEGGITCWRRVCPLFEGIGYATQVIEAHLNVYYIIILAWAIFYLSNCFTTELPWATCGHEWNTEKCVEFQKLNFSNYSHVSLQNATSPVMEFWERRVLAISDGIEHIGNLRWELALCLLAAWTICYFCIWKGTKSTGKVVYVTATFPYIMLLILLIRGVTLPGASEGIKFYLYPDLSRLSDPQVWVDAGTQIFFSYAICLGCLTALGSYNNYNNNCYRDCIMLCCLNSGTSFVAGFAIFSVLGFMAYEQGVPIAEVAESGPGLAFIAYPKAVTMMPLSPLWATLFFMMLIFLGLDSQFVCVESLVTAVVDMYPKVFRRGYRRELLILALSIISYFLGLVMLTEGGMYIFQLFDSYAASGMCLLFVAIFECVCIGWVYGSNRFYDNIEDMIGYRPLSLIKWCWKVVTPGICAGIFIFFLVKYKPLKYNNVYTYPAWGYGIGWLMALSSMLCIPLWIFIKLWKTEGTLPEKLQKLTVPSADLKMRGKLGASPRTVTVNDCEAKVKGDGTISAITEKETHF
Design: expressed in transfected cells
Details: data from Bolvig et al. 1999; read-out: mGAT4 uptake IC50; cited from earlier work

SMILES: NCCCC(=O)O [GABA, γ-aminobutyric acid]
- IC50: 17 µM
